Results published in patent US12552834B2, “Selective MENA binding peptides” (MASSACHUSETTS INSTITUTE OF TECHNOLOGY, priority 2021, dated 2026).

Protein sequences, listed by entry. Tags and fused reporters are not part of them. Chains listed by the source or under a name are the forms on record and can include a tag or linker.
UniProt Q8N8S7, with tags, fused parts or gaps: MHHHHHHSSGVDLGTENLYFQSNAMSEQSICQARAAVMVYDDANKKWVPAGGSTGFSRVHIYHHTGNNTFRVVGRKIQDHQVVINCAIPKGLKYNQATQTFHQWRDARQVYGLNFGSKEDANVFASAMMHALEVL

Target: T1, ENAH EVH1 domain (Homo sapiens, UniProt Q8N8S7)
T1 construct: places a 6×-His and TEV cleavage tag N-terminal to the EVH1 domain; 6×-His + TEV cleavage site (N, cleaved yes); made in house; host or cells: E. coli Rosetta2(DE3)
Assay: Biolayer interferometry (BLI), SUMO-peptide fusions binding monomeric ENAH EVH1 domain WT
Method: All BLI experiments were performed with 2 replicates on an Octet Red96 instrument (ForteBio). […] The loaded tips were immersed in a solution of ENAH EVH1 domain at a relevant dilution series in BLI buffer at an orbital shake speed of 1000 rpm and run until the binding signal plateaued. ENAH-bound tips were subsequently placed into BLI buffer only for dissociation and run until the binding signal plateaued. KD values were obtained through steady state analysis. […] The association phases were then fit to a one-phase binding model in Prism and the equilibrium steady-state binding signal values from that fit were plotted against ENAH concentration and fit to a single-site specific binding model in Prism to obtain dissociation constants. Errors reported are the standard deviation of two replicates.
Monomeric ENAH, EVL, or VASP EVH1 domains for use in BLI and ITC experiments, or ENAH EVH1-peptide fusions for crystallography was cloned into a pMCSG7 vector (gift from Frank Gertler, MIT), which places a 6×-His and TEV cleavage tag N-terminal to the EVH1 domain. These constructs were transformed into Rosetta2(DE3) cells and grown in 2×YT media supplemented with 100 μg/mL ampicillin. Cells were grown while shaking at 37° C. to an O.D. 600 of 0.5-0.7, and then cooled on ice for at least 20 minutes. They were then induced with 0.5 mM IPTG and grown while shaking at 18° C. overnight. […]

Row | Kd (Table 3, ABI1 truncation peptides) [µM] | binding to monomeric ENAH EVH1 domain by BLI, in words | Sequence
1 | 3.93 ± 0.875 | – | FDDFPPPPPPPPVDYEDEEAAV [ABI1 b]
2 | – | mid-micromolar affinity | PEEELPLPAFEKLNPYPTPSPPHPLYPGRRVIEFSE [TJAP]
